# Literature values as cited in patent US20160349242A1, “PLATFORM TECHNOLOGIES FOR SPONTANEOUSLY OCCURRING DISEASES” (Oatmeal Biotechnologies Group, LLC, priority 2009, published 2016).
# Test system: cells in vitro
# Settings: cited from earlier work
substance,measurement,value
bleomycin,increase of cytotoxicity by electropulsation,several thousand-fold
